Measurements from US20120021939A1, “METHOD FOR PROFILING DRUG COMPOUNDS USING PROTEIN KINASE INHIBITORS” (priority 2009, published 2012).

Key:
[1] = system: VEGFR kinase and the VEGFR signalling pathway; assay: Kinase activity profiling of tumor lysates on peptide microarray in presence and absence of Sorafinib; type: biochemical, human; conditions: pre-treatment RCC tumor lysate
VEGFR kinase = conditions: lysate from tumor kidney (RCC) of one patient, 144-peptide array, inhibitor added on chip, FIG. 3

CNC(=O)c1cc(Oc2ccc(NC(=O)Nc3ccc(Cl)c(C(F)(F)F)c3)cc2)ccn1 [Sorafinib]
Test result (inhibition of peptide phosphorylation by PKI) ([1]; Patient 1 (Responder)): Inhibition | Test result (inhibition of peptide phosphorylation by PKI) ([1]; Patient 2 (Responder)): Inhibition | Test result (inhibition of peptide phosphorylation by PKI) ([1]; Patient 3 (Non Responder)): No-Inhibition | Test result (inhibition of peptide phosphorylation by PKI) ([1]; Patient 4 (Non Responder)): No-Inhibition | changes in peptide phosphorylation versus control (DMSO) (VEGFR kinase): majority of the peptides show decreased kinase activity
